In US20250002435A1, “ARYLATED FENCHONE DERIVATIVES, COMPOSITIONS COMPRISING THEM, PROCESSES FOR THEIR PREPARATION AND USES THEREOF” (priority 2021, published 2025) one finds Ki and EC50 data, which are given here for three compounds.

Protein sequences, listed by entry. Tags and fused reporters are not part of them.
UniProt P34972, whole entry: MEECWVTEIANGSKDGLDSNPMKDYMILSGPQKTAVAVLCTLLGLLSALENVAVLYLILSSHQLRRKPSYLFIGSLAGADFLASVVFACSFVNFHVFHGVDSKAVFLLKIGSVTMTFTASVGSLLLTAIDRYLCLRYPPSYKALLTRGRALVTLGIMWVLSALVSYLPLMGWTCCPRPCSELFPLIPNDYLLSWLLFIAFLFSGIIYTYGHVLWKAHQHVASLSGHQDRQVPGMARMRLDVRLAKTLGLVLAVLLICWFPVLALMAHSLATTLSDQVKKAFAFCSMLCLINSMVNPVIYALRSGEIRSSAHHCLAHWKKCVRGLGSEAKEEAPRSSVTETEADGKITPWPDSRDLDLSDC

Read-outs that look alike come from different tables or passages of the source.

In assay [1] the target is T1, hCB2R (Homo sapiens (Human), UniProt P34972). The assay can be described thus: [3H]CP-55,940 competition displacement binding, membranes of CHO-K1 cells expressing human CB2R. Here is the method:
Affinity for Cannabinoid Receptors. The compounds were further characterized using a radioligand binding assay to determine their affinities for CB1R and CB2R based on each test compound's ability to displace the radiolabeled CB1R/CB2R agonist CP-55,940 from membranes prepared from a mouse brain (a source of CB1R) and membranes of cells expressing the human CB2R. […] Therefore, the compounds were assayed using membranes from CHO-K1 cells expressing the human CB2R (hCB2R).
Membranes from cells expressing human CB2R were purchased from Charles River, (Cat #A308; Ohio, US). Solutions of test compounds ranging from 0.1 nM to 10 mM were prepared in DMSO. The desired amount of membrane preparation was diluted with ice-cold assay buffer (50 mM Tris-HCl, 2.5 mM EDTA, 5 mM MgCl2, 0.1% BSA, pH 7.4) and was vortexed. […] The assays were incubated for 90 minutes at 30° C. and then immediately filtered on WHATMAN GF/B FilterPaper (Fired) using a Brandel M-24R Harvester followed by six washes with ice cold wash buffer (50 mM Tris-HCl, 2.5 mM EDTA, 5 mM MgCl2, 0.1% BSA, pH 7.4). Radioactivity was detected by adding the FilterPaper directly to the ULTIMA GOLD scintillation cocktail (PerkinElmer), incubation at 20° C. for 60 min and then counted using a Tri-Carb 4910TR liquid scintillation counter.

For assay [2], the target named is T1, hCB2R. The assay is described as follows: [35S]GTPγS binding assay, hCB2R CHO cell membranes. As to conditions: [35S]GTPγS binding to hCB2R; two independent experiments in triplicate. It counts as biochemical. Here is the method:
Functional Characterization.
The method used for measuring agonist-stimulated binding of [^35S]GTPγS was based on a described protocol. The assays were carried out with GTPγS assay buffer (50 mM Tris HCl (pH 7.4), 0.2 mM EGTA, 9 mM MgCl2, 150 mM NaCl, 1 mg/ml BSA). Briefly, membranes (5 μg protein) were incubated in assay buffer containing 100 μM GDP, 0.05 nM [^35S]GTPγS, test compounds at various concentrations in siliconized glass tubes. Bound ligand was separated from free ligand by vacuum filtration. Nonspecific binding was determined using 10 μM GTPS. Basal binding was assayed in the absence of the ligand and in the presence of GDP.

In assay [1] (displacement of [3H]CP-55,940), `CCCCCCCCc1ccc(OC)c(C2(O)C3(C)CCC(C3)C2(C)C)c1` (single isomer, unassigned) [Compound 3g, 2-(2′-methoxy-5′-octylphenyl)-1,3,3-trimethylbicyclo[2.2.1]heptan-2-ol] came in with a Ki of 1650 nM.

For the compound `CCCCCCCCc1ccc(OC)c(C2(O)C3(C)CCC(C3)C2(C)C)c1` (single isomer, unassigned) [Compound 3h, 2-(2′-methoxy-5′-octylphenyl)-1,3,3-trimethylbicyclo[2.2.1]heptan-2-ol], the Ki in assay [1] stood at 494 nM.

In turn, `CCCCCCC(C)(C)c1cc(OC)c([C@@H]2C=C(CO)[C@@H]3C[C@H]2C3(C)C)c(OC)c1` [HU-308, reference compound] returned an EC50 in assay [2] of 1.01 nM. For the same compound, the Ki in assay [1] (displacement of [3H]CP-55,940) was determined as 1.16 nM.

The term Ki denotes the equilibrium dissociation constant of an inhibitor or competing ligand from its target. A higher Ki goes with weaker binding. By EC50 is commonly meant the midpoint of the concentration-response curve. Low values mean a more potent agent, high ones a less potent agent.
